From ChEMBL document CHEMBL2321659, “Design, synthesis, and biological evaluation of indenoisoquinoline rexinoids with chemopreventive potential” (J Med Chem, 2013)

Legend:
[1] = biological target: T1, Vitamin D3 receptor (Homo sapiens) (UniProt P11473); assay: Binding affinity to VDR (unknown origin) after 30 mins by ultrafiltration LC-MS/MS analysis relative to 6-(6-aminohexyl)-5H-indeno[1,2-c]isoquinoline-5,11(6H)-dione; design: Activity: concentration or dose not given beside the values
T1 sequence (whole entry): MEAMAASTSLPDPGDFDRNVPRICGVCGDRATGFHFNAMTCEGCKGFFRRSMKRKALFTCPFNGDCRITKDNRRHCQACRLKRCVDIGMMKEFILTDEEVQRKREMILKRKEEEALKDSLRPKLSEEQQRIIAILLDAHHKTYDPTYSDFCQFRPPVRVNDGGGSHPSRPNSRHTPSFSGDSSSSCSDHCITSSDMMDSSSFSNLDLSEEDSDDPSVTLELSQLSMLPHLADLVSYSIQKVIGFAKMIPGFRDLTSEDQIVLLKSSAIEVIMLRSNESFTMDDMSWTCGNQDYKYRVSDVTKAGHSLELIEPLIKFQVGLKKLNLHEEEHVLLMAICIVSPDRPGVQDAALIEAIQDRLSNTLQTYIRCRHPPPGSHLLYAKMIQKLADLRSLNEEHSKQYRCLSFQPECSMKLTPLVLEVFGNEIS
How it was run: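 Recombinant VDR incubated with ligand in 20 µL for 30 min at 37 °C in the dark with shaking. Then ultrafiltration at 4 °C and rinses with cold 50 mM ammonium acetate/0.1 mM NaCl pH 8.0. Bound ligand released with methanol containing genistein, dried under N2 and quantified by LC-MS. Controls were boiled hVDR or no protein.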

[2] = biological target: T2, Retinoic acid receptor RXR-alpha (Homo sapiens) (UniProt P19793); assay: Activation of human RXRalpha activity expressed in COS1 cells assessed as induction ratio at 50 uM after 12 hrs by RXRE-luciferase reporter gene assay relative to untreated control; assay type: cell-based; details: COS-1
T2 sequence (whole entry): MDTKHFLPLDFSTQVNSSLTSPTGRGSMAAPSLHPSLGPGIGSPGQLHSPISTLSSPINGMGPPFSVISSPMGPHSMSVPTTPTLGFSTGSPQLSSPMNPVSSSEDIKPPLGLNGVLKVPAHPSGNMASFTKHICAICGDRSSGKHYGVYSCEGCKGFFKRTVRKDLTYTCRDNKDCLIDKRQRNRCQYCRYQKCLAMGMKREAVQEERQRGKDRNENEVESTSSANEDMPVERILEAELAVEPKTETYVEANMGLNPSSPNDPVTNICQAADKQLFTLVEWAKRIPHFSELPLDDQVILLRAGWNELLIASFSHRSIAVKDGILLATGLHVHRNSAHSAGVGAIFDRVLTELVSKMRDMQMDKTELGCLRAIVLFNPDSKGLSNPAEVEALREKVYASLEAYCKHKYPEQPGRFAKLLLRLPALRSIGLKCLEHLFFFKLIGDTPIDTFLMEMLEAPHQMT
How it was run: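 COS-1 cells transiently co-transfected per well with 100 ng RXRE-firefly luciferase reporter, 50 ng human RXRα expression vector and 3 ng Renilla luciferase vector using Lipofectamine 2000 for 24 h, then exposed to compound for a further 12 h. Dual-luciferase read-out. Induction ratio taken at 50 µM test concentration.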

[3] = biological target: T2, Retinoic acid receptor RXR-alpha (Homo sapiens); assay: Binding affinity to RXRalpha (unknown origin) at 10 uM after 2 hrs by ultrafiltration LC-MS/MS analysis relative to control
How it was run: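 Purified RXRα (10 µM stock in 50 mM Tris-HCl pH 7.5, 50 mM KCl, 1 mM EDTA) incubated with ligand (final 10 µM, DMSO) for 2 h at room temperature. Then 10 kDa ultrafiltration at 4 °C, three ammonium acetate pH 7.5 washes, release with 90% methanol, UHPLC-MS/MS (SRM). Binding ratio is peak area versus denatured-RXRα (60–70 °C, 15 min) control.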

CC(=O)Nc1ccc2c3c(n(CCCN)c(=O)c2c1)-c1ccccc1C3=O
Activity [1]: 50.7% | fold change (FC) [1]: 0.507 | Ratio [2]: > 1

CC(=O)NCCCn1c2c(c3ccc(N)cc3c1=O)C(=O)c1ccccc1-2
Ratio [2]: > 1

NCCCn1c2c(c3ccc(N)cc3c1=O)C(=O)c1ccccc1-2
Activity [1]: 17.3% | fold change (FC) [1]: 0.173 | Ratio [2]: > 1 | fold change (FC) [3]: 1.9
